# Literature values, collected in patent US20250368645A1, “BETA CARBOLINE ANALOGUES AS SELECTIVE AND BIASED KAPPA OPIOID RECEPTORS AGONISTS FOR TREATING VARIOUS ASSOCIATED PATHOPHYSIOLOGICAL CONDITIONS” (COUNCIL OF SCIENTIFIC AND INDUSTRIAL RESEARCH, priority 2022, published 2025).
# System: KOR
# Conditions: literature background; cited from earlier work
structure (smiles),measurement,value
CN(C(=O)Cc1ccc(Cl)c(Cl)c1)[C@H](CN1CCCC1)c1ccccc1,"potency relative to U-50,488",146 fold
